Results taken from ChEMBL document CHEMBL5214998, “Development of Macrocyclic PRMT5-Adaptor Protein Interaction Inhibitors” (J Med Chem, 2022).

Amino acid sequences for entries named in this document (tags omitted).
UniProt O14744, whole entry: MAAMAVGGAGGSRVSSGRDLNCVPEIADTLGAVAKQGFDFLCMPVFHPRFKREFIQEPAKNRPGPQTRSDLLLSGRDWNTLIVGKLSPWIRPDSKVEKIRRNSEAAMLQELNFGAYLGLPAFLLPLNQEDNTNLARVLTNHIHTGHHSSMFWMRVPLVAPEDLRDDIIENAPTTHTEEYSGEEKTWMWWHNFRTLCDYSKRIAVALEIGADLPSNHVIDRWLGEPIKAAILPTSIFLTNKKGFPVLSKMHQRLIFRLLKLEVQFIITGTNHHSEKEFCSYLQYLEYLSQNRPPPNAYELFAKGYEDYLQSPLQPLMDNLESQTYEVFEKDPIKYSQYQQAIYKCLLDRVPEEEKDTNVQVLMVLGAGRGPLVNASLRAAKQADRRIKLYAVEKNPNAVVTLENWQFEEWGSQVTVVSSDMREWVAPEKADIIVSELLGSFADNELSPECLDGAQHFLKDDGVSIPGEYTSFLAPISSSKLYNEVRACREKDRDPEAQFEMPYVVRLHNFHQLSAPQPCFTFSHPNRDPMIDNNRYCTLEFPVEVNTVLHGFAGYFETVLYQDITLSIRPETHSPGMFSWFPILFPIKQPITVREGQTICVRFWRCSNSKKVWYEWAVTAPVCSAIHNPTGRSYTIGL

Molecular target: PRMT5/MEP50 complex (Homo sapiens, UniProt O14744)
Test: Binding affinity to PRMT5/MEP50 (unknown origin) assessed as dissociation constant by FITC- Competitive binding assay
Assay type: protein-complex assay
Summary of the method: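 Direct FP binding: FITC-labeled peptide at 1 nM final with PRMT5-MEP50 complex titrated as two-fold dilutions in 50 mM HEPES, 250 mM NaCl, 1 mM TCEP, 0.01% Tween 20, pH 8.0; incubated 1–2 h at room temperature; read at 485/535 nm; triplicate.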

`CC(=O)N[C@H](C(=O)N1CCC[C@H]1C(=O)N[C@H]1C/C=C\CC[C@@H](C(=O)N[C@@H](CC(=O)O)C(=O)N[C@@H](C)C(=O)N[C@@H](CC(=O)O)C(=O)N[C@@H](CCCCNC(=S)Nc2ccc3c(c2)C(=O)OC32c3ccc(O)cc3Oc3cc(O)ccc32)C(N)=O)NC(=O)[C@H](Cc2ccccc2)NC(=O)[C@H](CCC(N)=O)NC1=O)C(C)C` (stereo in doubt) was tested. Which pKd did it give?
The pKd was 5.77.

pKd: −log10 of the molar value.
